Experimental data: ChEMBL document CHEMBL1155708, “Isoaurostatin, a novel topoisomerase inhibitor produced by Thermomonospora alba” (J Nat Prod, 2001)
pIC50: −log10 of the molar value.

Experiments:
Assay type in all cases: cell-based
DNA topoisomerase 1 [1] = molecular target: T1, DNA topoisomerase 1 (Homo sapiens, UniProt P11387); test: Inhibition topoisomerase 1 in human A549 cells assessed as conversion of supercoiled pBR322 DNA to relaxed form
T1 sequence (P11387 whole entry): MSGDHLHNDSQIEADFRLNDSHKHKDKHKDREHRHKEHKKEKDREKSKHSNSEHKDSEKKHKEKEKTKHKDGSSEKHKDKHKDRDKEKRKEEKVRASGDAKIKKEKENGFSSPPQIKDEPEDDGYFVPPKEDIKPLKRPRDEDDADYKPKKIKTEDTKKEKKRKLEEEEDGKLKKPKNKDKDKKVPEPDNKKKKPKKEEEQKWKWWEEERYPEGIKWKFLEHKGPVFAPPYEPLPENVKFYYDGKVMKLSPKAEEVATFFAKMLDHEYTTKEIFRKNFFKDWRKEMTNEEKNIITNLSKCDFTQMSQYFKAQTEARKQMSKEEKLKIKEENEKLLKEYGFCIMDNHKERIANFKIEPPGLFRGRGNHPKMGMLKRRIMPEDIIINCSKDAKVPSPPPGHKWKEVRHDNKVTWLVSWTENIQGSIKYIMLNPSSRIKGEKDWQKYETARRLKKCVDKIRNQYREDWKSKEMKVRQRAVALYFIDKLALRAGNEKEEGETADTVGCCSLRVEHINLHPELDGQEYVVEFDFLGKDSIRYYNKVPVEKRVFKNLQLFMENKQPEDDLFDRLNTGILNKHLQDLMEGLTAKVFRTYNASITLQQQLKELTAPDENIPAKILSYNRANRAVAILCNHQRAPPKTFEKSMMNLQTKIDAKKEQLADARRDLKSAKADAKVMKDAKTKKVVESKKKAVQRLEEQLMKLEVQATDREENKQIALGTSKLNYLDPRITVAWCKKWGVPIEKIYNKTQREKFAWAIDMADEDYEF
Outline: (§1)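 Topo I source: crude extract from cells grown 5 days, PBS-washed and pelleted (1 × 10^6 cells), then lysed 30 min on ice in Tris-HCl pH 7.5 buffer with MgCl2, EGTA, AEBSF, β-mercaptoethanol, 0.5% CHAPS and 10% glycerin. The cleared supernatant relaxes supercoiled pBR322 DNA. Products are resolved on agarose gel and scored by densitometry.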

DNA topoisomerase 1 [2] = molecular target: T1, DNA topoisomerase 1; test: Inhibition topoisomerase 1 in human COLO201 cells assessed as conversion of supercoiled pBR322 DNA to relaxed form; outline: as §1
DNA topoisomerase 1 [3] = molecular target: T1, DNA topoisomerase 1; test: Inhibition topoisomerase 1 in human HeLa cells assessed as conversion of supercoiled pBR322 DNA to relaxed form; outline: as §1

Measured: pIC50

COc1cccc2c1C(=O)c1c(O)c3c(c(O)c1C2=O)C[C@@](O)(C(=O)CO)C[C@@H]3O[C@H]1C[C@H](N)[C@H](O)[C@H](C)O1 [DOXORUBICIN]
< 3.70: all assays above
